# Test results from PubChem BioAssay AID651635 (National Center for Advancing Translational Sciences (NCATS), 2012).
# The entries are a selection whose mix differs from that of the whole data set. Results filed as inconclusive are left out. Activity calls are given as the source filed them. Calls come from the whole dose curve; as a rule, active = well fitted cell-killing curve with a large enough effect; inconclusive = small, poorly fitted or top-dose-only effect, or effect the other way; inactive = no such curve, though single readings can be large or run the other way.
# Test: Viability Counterscreen for Primary qHTS for Inhibitors of ATXN expression; note: nearly all actives have a fitted effect of over 40% in size
# Conditions: S2 cells (HEK-293 line with an ATXN2-luciferase reporter) viability, CellTiter-Fluor protease fluorescence, 24 h; series mostly up to 56.7 µM; activity change, negative = cytotoxicity: at the top concentration
# Potency is the fitted concentration of half-maximal effect.
Compound,"activity change, negative = cytotoxicity",Potency
CCCCCCCCCCCCCCCC1C[N+](C)(C)CCOP(C)(=O)O1 (centres undefined),inactive: -26.5%,–
CP(=O)(Nc1ccc(Cl)cc1Cl)Oc1ccccc1 (centres undefined),inactive: -3.96%,–
Cc1cc(C)cc(OP(C)(=O)Nc2cccc(C(F)(F)F)c2)c1 (centres undefined),inactive: -14.6%,–
COc1ccc(OP(C)(=O)Nc2ccccc2Br)cc1 (centres undefined),inactive: -18.3%,–
COc1ccccc1OP(C)(=O)Nc1ccc(C)c(C)c1 (centres undefined),inactive: -21.1%,–
CCc1ccc(OP(C)(=O)O)cc1,inactive: 2.18%,–
COc1ccccc1OP(C)(=O)Nc1ccc(C)cc1C (centres undefined),inactive: -26.3%,–
CP(=O)(Nc1ccccn1)Oc1ccccc1 (centres undefined),inactive: -7.19%,–
COc1ccccc1OP(C)(=O)Nc1ccc(Br)cc1 (centres undefined),inactive: -12%,–
CN(C)CCOC(=O)C(O)(c1ccccc1)C1CCCC1 (centres undefined),inactive: -28.1%,–
COc1ccc(OP(C)(=O)Nc2ccccn2)cc1 (centres undefined),inactive: -12.5%,–
CP(=O)(Nc1ccc(Cl)cc1)Oc1ccc(F)cc1 (centres undefined),inactive: -17.5%,–
COc1ccccc1OP(C)(=O)Nc1ccccc1Br (centres undefined),inactive: -5.16%,–
CC(C)(C)c1ccc(OP(C)(=O)O)cc1,inactive: -2.01%,–
COc1ccc(OP(C)(=O)Nc2ccc(Br)cc2)cc1 (centres undefined),inactive: -17.7%,–
CCN(CC)CC(O)COC(=O)C(O)(c1ccccc1)C1CCCCC1 (centres undefined),inactive: -21.9%,–
CCc1ccc(OP(C)(=O)Nc2cccnc2)cc1 (centres undefined),inactive: 22.8%,–
CP(=O)(Oc1ccccc1)N1CCOC1=O (centres undefined),inactive: -1.06%,–
O=C(OCCCN1CCCC1)C(O)(c1ccccc1)C1CCCCC1 (centres undefined),inactive: -10.1%,–
OCCSCCO,inactive: -8.69%,–
CP(=O)(OC12CC3CC(CC(C3)C1)C2)OC12CC3CC(CC(C3)C1)C2,inactive: -34.7%,–
O=[N+]([O-])c1ccc(OP2(=O)COCCO2)cc1 (centres undefined),inactive: -6.75%,–
Cc1c(C(c2ccc3c(c2)OCO3)c2c(C)n(C)n(-c3ccccc3)c2=O)c(=O)n(-c2ccccc2)n1C.O=[N+]([O-])c1cc([N+](=O)[O-])c(O)c([N+](=O)[O-])c1,inactive: 5.18%,–
COc1ccc(OP(C)(=O)Nc2cccc(Br)c2)cc1 (centres undefined),inactive: -21.4%,–
COc1ccc(NP(C)(=O)Oc2ccccc2OC)cc1 (centres undefined),inactive: -9.14%,–
CN(C)CCOC(=O)C(O)(c1ccccc1)C1CCCCC1 (centres undefined),inactive: -0.613%,–
CP(=O)(Nc1ccc2c(c1)OCCO2)Oc1ccccc1 (centres undefined),inactive: 9.93%,–

Compound,"activity change, negative = cytotoxicity",Potency
O=[N+]([O-])c1cc([N+](=O)[O-])c(C(F)(F)F)c([N+](=O)[O-])c1O,inactive: -29%,–
Cc1ccccc1NP(C)(=O)Nc1ccccc1C,inactive: -30.3%,–
C/C1=C2N=C(/C=C3N=C(/C(C)=C4\[N-][C@@](C)([C@@H]5N=C1[C@](C)(CCC(=O)NC[C@@H](C)OP(=O)([O-])O[C@H]1[C@@H](O)[C@@H](n6cnc7cc(C)c(C)cc76)O[C@@H]1CO)[C@H]5CC(N)=O)[C@@](C)(CC(N)=O)[C@@H]4CCC(N)=O)[C@@](C)(CC(N)=O)[C@@H]\3CCC(N)=O)C(C)(C)[C@@H]/2CCC(N)=O.[C-]#N.[Co+3],inactive: -24.9% [at 25.4 µM],–
CP(=O)(Nc1ccc(SC(F)(F)F)cc1)Oc1ccc(F)cc1 (centres undefined),inactive: -16.8%,–
CCOP(C)(=S)SCC(=O)NC(C)(CC)C(=O)O (centres undefined),inactive: -12.2%,–
O=C(OCCN1CCN(CCOCc2ccccc2)CC1)C(O)(c1ccccc1)c1ccccc1,inactive: -7.84%,–
CCOP(=O)(CC)Oc1ccc([N+](=O)[O-])cc1 (centres undefined),inactive: -21.2%,–
CP(=O)(Nc1ccccc1F)Oc1ccccc1 (centres undefined),inactive: -2.17%,–
CCN(CC)CCCOC(=O)C(O)(c1ccccc1)C1CCCCC1 (centres undefined),inactive: -34.4%,–
Cc1c([N+](=O)[O-])cc([N+](=O)[O-])c(Br)c1[N+](=O)[O-],inactive: -25.6%,–
CCCCCOc1ccc(NP(C)(=O)Oc2ccc(Cl)cc2Cl)cc1 (centres undefined),inactive: -3.22%,–
CP(=O)(Nc1ccccc1)Oc1ccc(F)cc1 (centres undefined),inactive: -20.8%,–
Cc1cccc([N+](=O)[O-])c1[N+](=O)[O-],inactive: 7.55% [at 114 µM],–
CCOC(=O)c1ccc(NP(C)(=O)Oc2ccc(F)cc2)cc1 (centres undefined),inactive: -22.2%,–
CC1=NCCc2c1[nH]c1ccccc21.O=[N+]([O-])c1cc([N+](=O)[O-])c(O)c([N+](=O)[O-])c1,inactive: 1.27%,–
O=[N+]([O-])c1cccc([N+](=O)[O-])c1,inactive: -19% [at 126 µM],–
Cc1cc(C)cc(OP(C)(=O)Nc2ccccn2)c1 (centres undefined),inactive: -24.2%,–
CP(=O)(Nc1cccc(Br)c1)Oc1ccccc1 (centres undefined),inactive: -1.61%,–
Cc1ccc(C)c(NP(C)(=O)Oc2ccccc2)c1 (centres undefined),inactive: -5.52%,–
COc1ccccc1OP(C)(=O)Nc1cccc(Br)c1 (centres undefined),inactive: -20.9%,–
Cc1cc(C)cc(OP(C)(=O)Nc2ccc(C)cc2C)c1 (centres undefined),inactive: 3.08%,–
CCOC(=O)c1ccc(NP(C)(=O)Oc2cc(C)cc(C)c2)cc1 (centres undefined),inactive: -23.6%,–
O=[N+]([O-])c1cc([N+](=O)[O-])c(-c2cnn(-c3ccccc3)c2)c([N+](=O)[O-])c1,inactive: -27.4%,–
O=[N+]([O-])c1cc([N+](=O)[O-])c(-n2nnc3ccccc32)c([N+](=O)[O-])c1,inactive: -21%,–
CC(C)N(CCCl)C(C)C,inactive: -16.6%,–
CN(Cc1cccnc1)C(=O)COc1ccc(Cl)c(Cl)c1.O=[N+]([O-])c1cc([N+](=O)[O-])c(O)c([N+](=O)[O-])c1,–,active: 10 µM
CN1CCCCC1COC(=O)C1(O)c2ccccc2CCc2ccccc21 (centres undefined),inactive: 10.2%,–

Compound,"activity change, negative = cytotoxicity",Potency
COc1ccccc1OP(C)(=O)Nc1c(C)cccc1C (centres undefined),inactive: -27.8%,–
CCCOc1ccc(NP(C)(=O)Oc2ccc(Cl)cc2)cc1 (centres undefined),inactive: 22.6%,–
CP(=O)(Nc1ccc(SC(F)(F)F)cc1)Oc1ccccc1 (centres undefined),inactive: -19%,–
CC1=C2N=C(C=C3N=C(C(C)=C4[N-][C@@](C)([C@@H]5N=C1[C@](C)(CCC(=O)NC[C@@H](C)OP(=O)([O-])O[C@H]1[C@@H](O)[C@@H](n6cnc7cc(C)c(C)cc76)O[C@@H]1CO)[C@H]5CC(N)=O)[C@@](C)(CC(N)=O)[C@@H]4CCC(N)=O)[C@@](C)(CC(N)=O)[C@@H]3CCC(N)=O)C(C)(C)[C@@H]2CCC(N)=O.[C-]#N.[Co+3],inactive: -36%,–
CP(=S)(Nn1cnnc1)Oc1ccccc1 (centres undefined),inactive: -11.9%,–
COc1ccccc1OP(C)(=O)Nc1ccccc1 (centres undefined),inactive: 29%,–
CP(=O)(Nc1ccccc1Br)Oc1ccccc1 (centres undefined),inactive: -24.7%,–
CCOP(C)(=S)SCC(=O)NC(C)C(=O)O (centres undefined),inactive: -19.3%,–
O=[N+]([O-])c1cc([N+](=O)[O-])c(O)c([N+](=O)[O-])c1.c1ccc(Oc2ccncc2)cc1,inactive: -25.8%,–
CCOC(=O)c1ccc(NP(C)(=O)Oc2ccc(OC)cc2)cc1 (centres undefined),inactive: -37.2%,–
CP(=O)(Nc1ccccn1)Oc1ccc(Cl)cc1 (centres undefined),inactive: -25.5%,–
CP(=O)(Oc1ccccc1)OC(c1ccccc1)C(F)(F)F (centres undefined),inactive: 0.544%,–
CP(=O)(Nc1ccc(SC(F)(F)F)cc1)Oc1ccc(Cl)cc1 (centres undefined),inactive: -10.3%,–
Cc1cccc(C)c1OP(C)(=O)Nc1ccc(SC(F)(F)F)cc1 (centres undefined),inactive: -0.672%,–
Cc1cc(C)cc(OP(C)(=O)Nc2ccc(SC(F)(F)F)cc2)c1 (centres undefined),inactive: -9.54%,–
CP(=O)(NC(=O)Nc1ccccc1)Oc1ccccc1 (centres undefined),inactive: 9.2%,–
CCc1ccc(OP(C)(=O)N2CCN(c3ccc([N+](=O)[O-])cc3)CC2)cc1 (centres undefined),inactive: -28%,–
CCN(CC)CCCOC(=O)C(O)(c1ccccc1)c1ccccc1,inactive: 35.2%,–
Cc1ccc(NP(C)(=O)Oc2ccccc2)c(C)c1 (centres undefined),inactive: -4.52%,–
COc1ccccc1OP(C)(=O)Nc1ccc(C)cc1 (centres undefined),inactive: -4.63%,–
COc1ccc(OP(C)(=O)Nc2cccc(F)c2)cc1 (centres undefined),inactive: -18.2%,–
COc1ccccc1OP(C)(=O)Nc1cc(Cl)ccc1C (centres undefined),inactive: -1.67%,–
Cc1cc(C)cc(OP(C)(N)=O)c1 (centres undefined),inactive: 28.3%,–
Cc1cccc(C)c1OP(C)(N)=O (centres undefined),inactive: -11.6%,–
O=[N+]([O-])c1ccc2c(c1)C=Nc1ccccc1O2,inactive: -27.5%,–
